In patent publication US12569478B2 (priority 2021, dated 2026):

Assay: Safety assessment in study subjects (Example 1)
Settings: all study subjects

SMILES: C[C@]12N3Cc4c(OCCCS(=O)(=O)O)ccc(OCCCS(=O)(=O)O)c4CN1C(=O)N1CN4C(=O)N5CN6C(=O)N7CN8C(=O)N9Cc%10c(OCCCS(=O)(=O)O)ccc(OCCCS(=O)(=O)O)c%10CN%10C(=O)N(CN%11C(=O)N(CN%12C(=O)N(CN(C3=O)[C@]12C)[C@@H]4[C@H]%125)[C@@H]6[C@H]%117)[C@]8(C)[C@@]9%10C
- tolerability in safety assessment: well tolerated
